Amino acid sequences for entries named in this document (tags omitted).
UniProt P28334, whole entry: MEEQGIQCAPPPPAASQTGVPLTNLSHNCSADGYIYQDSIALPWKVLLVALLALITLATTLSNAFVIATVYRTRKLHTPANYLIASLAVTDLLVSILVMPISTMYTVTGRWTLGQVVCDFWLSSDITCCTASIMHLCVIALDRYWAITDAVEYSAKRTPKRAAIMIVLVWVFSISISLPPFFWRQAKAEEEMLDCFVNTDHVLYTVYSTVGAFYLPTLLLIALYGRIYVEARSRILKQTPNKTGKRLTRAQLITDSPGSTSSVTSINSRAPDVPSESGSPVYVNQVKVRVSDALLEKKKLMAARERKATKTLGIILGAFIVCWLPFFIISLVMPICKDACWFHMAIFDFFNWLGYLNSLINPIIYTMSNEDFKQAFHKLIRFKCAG
UniProt P19327, whole entry: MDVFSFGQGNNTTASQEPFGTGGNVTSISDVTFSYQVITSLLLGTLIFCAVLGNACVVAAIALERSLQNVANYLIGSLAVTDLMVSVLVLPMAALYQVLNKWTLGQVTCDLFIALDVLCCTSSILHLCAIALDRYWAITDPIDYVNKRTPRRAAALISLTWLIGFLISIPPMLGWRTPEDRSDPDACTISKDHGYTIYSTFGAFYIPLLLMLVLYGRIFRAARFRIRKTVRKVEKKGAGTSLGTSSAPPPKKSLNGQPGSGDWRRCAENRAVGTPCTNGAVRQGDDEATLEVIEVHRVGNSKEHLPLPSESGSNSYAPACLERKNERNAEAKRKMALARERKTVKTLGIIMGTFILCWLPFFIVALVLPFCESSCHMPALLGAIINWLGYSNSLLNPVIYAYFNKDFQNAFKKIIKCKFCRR
UniProt P14842, whole entry: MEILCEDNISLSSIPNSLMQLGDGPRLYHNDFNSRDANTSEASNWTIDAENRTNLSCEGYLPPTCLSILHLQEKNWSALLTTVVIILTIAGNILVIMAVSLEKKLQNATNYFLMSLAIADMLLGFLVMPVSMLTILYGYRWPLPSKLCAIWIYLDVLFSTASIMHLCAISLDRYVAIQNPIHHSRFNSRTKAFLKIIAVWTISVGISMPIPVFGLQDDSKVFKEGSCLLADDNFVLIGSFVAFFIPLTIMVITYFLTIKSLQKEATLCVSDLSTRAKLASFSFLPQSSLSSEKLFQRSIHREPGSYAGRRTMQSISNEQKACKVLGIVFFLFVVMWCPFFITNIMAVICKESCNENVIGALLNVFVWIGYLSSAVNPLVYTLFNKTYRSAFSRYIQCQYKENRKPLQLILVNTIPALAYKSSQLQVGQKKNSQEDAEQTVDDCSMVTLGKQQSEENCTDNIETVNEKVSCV
UniProt P28564, whole entry: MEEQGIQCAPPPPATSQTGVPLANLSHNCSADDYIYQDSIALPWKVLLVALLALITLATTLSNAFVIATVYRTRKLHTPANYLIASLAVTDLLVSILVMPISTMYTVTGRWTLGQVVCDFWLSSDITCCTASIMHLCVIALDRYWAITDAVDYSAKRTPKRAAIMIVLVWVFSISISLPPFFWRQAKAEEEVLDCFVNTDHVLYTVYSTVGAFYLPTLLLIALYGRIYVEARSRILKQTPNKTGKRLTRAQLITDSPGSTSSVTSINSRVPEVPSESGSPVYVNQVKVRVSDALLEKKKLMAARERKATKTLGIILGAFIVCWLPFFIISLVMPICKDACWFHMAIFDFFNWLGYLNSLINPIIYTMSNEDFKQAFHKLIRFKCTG

In patent publication US6713443B1, “Compounds which modify serotoninergic transmission, diagnostic and therapeutic applications” (Institut Pasteur, priority 1993, dated 2004):

Columns and labels:
mouse 5-HT1B receptor [1] = biological target: T1, mouse 5-HT1B receptor (Mus musculus, UniProt P28334); assay: Adenylyl cyclase activity, NIH 3T3 cell membranes expressing the mouse 5-HT1B receptor; format: biochemical
T1 construct: expressed in transfected cells; host or cells: NIH 3T3 cells
Protocol: NIH 3T3 cell membranes expressing the mouse 5-HT1B receptor gene were suspended and homogenized with a Dounce homogenizer in a 50 mM Tris-HCl buffer, pH 7.4, containing 3 mM MgCl2 and 0.2 mM EGTA (TME buffer).
The adenylyl cyclase activities were measured on aliquot fractions of 50 μl (30-50 μg of protein) of homogenates in a final volume of 100 μl, containing 0.1 mM [α-^32P]ATP (1 μCi), 1 mM MgCl2, 50 μM GTP, 10 μM forskolin, 100 mM NaCl, 10 mM theophylline, 20 mM phosphocreatinine, 0.2 mg/ml creatine kinase, 1 mM [^3H]cAMP (=15,000 cpm/test) and the substances to be studied.
The membranes were incubated for 20 minutes at 30° C. The reaction was stopped by addition of 200 μl of 5 mM ATP, 5 mM cAMP and 1% sodium dodecyl sulphate dissolved in 50 mM Tris-HCl buffer.
The [^32P]cAMP formed was isolated by the two-column chromatography method described by Salomon et. al. (Adv. Cyclic Nucleotide Res., 10, 35-55 (1979), modified by De Vivo and Maayani (J. Pharmacol. Exp. Therap. 238, 248-253 (1986)).
The 5-HT1B/D receptors are known to be predominantly coupled to the Gi protein, inhibiting the activity of adenylyl cyclase. The interaction of LSAL was examined on the enzymatic activity correlated with the 5-HT1B receptor stimulation expressed in NIH 3T3 cells.

muscarinic receptors = format: binding, rat; conditions: 1 nM peptide; [3H]quinuclidinyl benzilate (3 nM)
5-HT1A = biological target: T2, 5-HT1A (Rattus norvegicus, UniProt P19327); assay: [3H]8-OH-DPAT binding, rat brain membranes
T2 construct: from tissue; host or cells: rat brain membranes

5-HT1 NON A = assay: [3H]5-HT binding to 5-HT1 non A sites (with 8-OH-DPAT), rat brain membranes
Protocol: The synthetic peptide LSAL was tested for its capacity to “mimic” the effects of the purified fraction obtained from brain extracts.
(§1) Rat brain cerebral membranes (200 μg) were incubated for 30 minutes at 25° C. with various specific radioligands (see table) in the presence or in the absence of 1 nM peptide.
(§2) The various binding conditions used for the serotoninergic receptors are those described above (PALACIOS J. M. et al., Methods in Neurosciences 12, 238-262 (1993)). For the other bindings, the incubation medium consisted of 50 mM Tris-HCl pH 7.4 containing 120 mM NaCl and 50 mM KCl ([^3H]spiroperidol, [^3H]quinuclidinyl benzilate, [^3H]naloxone, or 4 mM CaCl2 and 4 mM MgCl2 ([^3H]flunitrazepam), or 120 mM NaCl, 5 mM KCl, 2.5 mM CaCl2 and 1 mM MgSO4 ([^3H]prazosin), or 90 mM NaCl ([^3H]dihydroalprenolol).
Each point corresponds to a mean plus or minus the standard deviation of five independent determinations.

mouse 5-HT1B receptor [2] = biological target: T1, mouse 5-HT1B receptor; assay: [125I]cyanopindolol binding, membranes of NIH 3T3 cells transfected with the 5-HT1B receptor gene; conditions: NIH 3T3 cells transfected with mouse 5-HT1B; read-out: maximum effect, inhibition of the specific binding of [125I]cyanopindolol
Protocol: (§3) The binding of [^125I]cyanopindolol was measured as described in HOYER D. et al., Eur. J. Pharmacol. 118, 1-12 (1985).
FIG. 1B represents the results obtained with membranes of NIH 3T3 cells transfected with the 5-HT1B receptor gene (50 μg of protein), incubated for 60 minutes at 37° C. in the presence of 0.3 nM [^125I]cyanopindolol. Binding was measured as for FIG. 1A.
The activity of the peptide was also evaluated on the binding to the 5-HT1B receptors in NIH 3T3 cells transfected with the mouse 5-HT1B receptor gene.

5-HT1B/D receptors [3] = assay: Relative activity at 1 nM, [125I]cyanopindolol binding; conditions: 1 nM peptide or amino acid, 0.3 nM [125I]cyanopindolol
Protocol: (§4) The binding experiments were performed as described above. […] Each value corresponds to the mean ± the standard deviation of three independent tests performed in quintuplicate.

5-HT1B/D receptors [4] = assay: Relative activity at 1 nM, [3H]5-HT binding; conditions: 1 nM peptide or amino acid, 30 nM [3H]5-HT
Protocol: as §4

5-HT2A = biological target: T3, 5-HT2A (Rattus norvegicus, UniProt P14842); assay: [3H]ketanserin binding, rat brain membranes; conditions: 1 nM peptide; [3H]ketanserin (5 nM)
T3 construct: from tissue; host or cells: rat brain membranes

β adrenergic receptor = assay: [3H]dihydroalprenolol binding, rat brain membranes; conditions: 1 nM peptide; [3H]dihydroalprenolol (3 nM) + 5-HT-5
5-HT1B/1D receptors = assay: Inhibitory function of the 5-HT1B/1D receptors on the evoked release of acetylcholine; format: biochemical; conditions: preliminary tests
5-HT1B receptor [5] = biological target: T4, 5-HT1B receptor (Rattus norvegicus, UniProt P28564); assay: Adenylyl cyclase activity, rat substantia nigra homogenates; format: biochemical; set-up: from tissue; host or cells: rat substantia nigra homogenates
Text: This activity was dependent on the concentration, with a bell-shaped dose-response curve.

5-HT1B receptor [6] = biological target: T4, 5-HT1B receptor; assay: [125I]cyanopindolol binding to 5-HT1B receptors, rat brain membranes; set-up: from tissue; host or cells: rat brain cortical membranes
Protocol: as §3
FIG. 1A represents the results obtained with rat brain cortical membranes (50 μg of protein), incubated for 60 minutes at 37° C. in a total volume of 100 μl in the presence of 0.3 nM [^125I]cyanopindolol.
The incubation was carried out in a 5 mM Tris-HCl buffer, pH 7.5, containing 154 mM NaCl, 1 μM pargyline, 30 μM isoproterenol and various concentrations of the peptide (10^−13 to 10^−8 M). Each point corresponds to a mean plus or minus the standard deviation of five independent determinations.
FIG. 1C represents the results obtained from rat brain cortical membranes (50 μg of protein) incubated for 60 minutes at 37° C. in a total volume of 100 μl, in the presence of increasing concentrations of [^125I]cyanopindolol (0.06 to 0.35 nM) with (◯) or without (●) the peptide at 1 nM. Each point corresponds to the mean plus or minus the standard deviation of three independent determinations.
as §1, §2

For CC(C)C[C@H](NC(=O)[C@H](C)NC(=O)[C@H](CO)NC(=O)[C@@H](N)CC(C)C)C(=O)O [LSAL, Leu-Ser-Ala-Leu], the “effect on the basal production of cAMP” value (mouse 5-HT1B receptor [1]; NIH 3T3 cells expressing 5-HT1B) was “did not have any effect”, the “effect on the inhibitory effect of 5-HT on adenylyl cyclase activity stimulated by forskolin” value (mouse 5-HT1B receptor [1]; concentration dependent, bell-shaped dose-response curve, FIG. 2) was “significantly increased” and the “INHIBITORY EFFECT AS % OF THE CONTROL” value (muscarinic receptors) was 0 ± 2 % of the control. The “INHIBITORY EFFECT AS % OF THE CONTROL” value (5-HT1A; 1 nM peptide, [3H]8-OH-DPAT (3 nM)) was 0 % of the control, the “effect on 5-HT1A receptors” value (5-HT1A; at a concentration which strongly antagonized the binding to 5-HT1B/1D) was “not affected” and the “INHIBITORY EFFECT AS % OF THE CONTROL” value (5-HT1 NON A; 1 nM peptide, [3H]5-HT (30 nM) + 0.1 μM 8-OH-DPAT) was 75 ± 3 % of the control. For the same compound, the “IC50, binding to 5-HT1nonA” value (5-HT1 NON A; compared with the IC50 on 5-HT1 receptors) was “identical IC50”, the “maximum inhibition of binding to 5-HT1nonA” value (5-HT1 NON A; mainly 5-HT1B/1D sites) was 75% and the Emax (mouse 5-HT1B receptor [2]) was 70%. The “RELATIVE POTENCY, Receptors 5-HT1B/D ([125I]-cyanopindolol)” value (5-HT1B/D receptors [3]) was 100 ± 10 percentage of the LSAL effect, the “RELATIVE POTENCY, Receptors 5-HT1B/D ([3H]5-HT)” value (5-HT1B/D receptors [4]) was 100 ± 5 percentage of the LSAL effect and the “INHIBITORY EFFECT AS % OF THE CONTROL” value (5-HT2A) was 10 ± 5 % of the control. For the same compound, the “INHIBITORY EFFECT AS % OF THE CONTROL” value (β adrenergic receptor) was 10 ± 15 % of the control, the “effect on the action of a 5-HT1B agonist” value (5-HT1B/1D receptors; at a higher concentration) was “potentiated the effect” and the “effect on the modulatory activity of the 5-HT1B/1D receptors” value (5-HT1B/1D receptors; at a very low concentration) was “antagonized the modulatory activity”. For the same compound, the “activity on adenylyl cyclase compared with NIH 3T3 cells” value (5-HT1B receptor [5]) was “practically similar”, the IC50 (5-HT1B receptor [6]) was 0.01 nM and the “INHIBITORY EFFECT AS % OF THE CONTROL” value (5-HT1B receptor [6]; 1 nM peptide, [125I]cyanopindolol (0.3 nM) + 30 μM isoproterenol + 0.1 nM 8-OH DPAT) was 70 ± 2 % of the control. The “type of interaction (saturation curves in the presence of the peptide)” value (5-HT1B receptor [6]; peptide at 1 nM, FIGS. 1C, 1D) was “noncompetitive interaction” and the Emax (5-HT1B receptor [6]; rat cerebral tissue homogenates, FIG. 1A, read-out: maximum effect, % inhibition) was 60%.
